Laboratory results as given in patent US9624218B2 (Eli Lilly and Company, priority 2014, dated 2017).

What was measured:
[1] = tested on: EGFP-Axin2 fusion protein; settings: read-out: Axin2 Stabilization EC50; HEK293 EGFP-Axin2 cells, 24 hours; Mean ± SEM
[2] = tested on: Wnt-inducible genes (TCF/LEF luciferase reporter in DLD-1 TOPFlash cells); assay: cells; settings: Homo sapiens, DLD-1, 24 h, read-out: Wnt-inducible gene expression inhibition IC50, DLD-1 TOPFlash cells, 24 hours; Mean ± SEM

## CN1CCCc2c1nc(N1CCN(Cc3ncccc3C(F)(F)F)CC1)[nH]c2=O [Example 35, 8-Methyl-2-[4-[[3-(trifluoromethyl)-2-pyridyl]methyl]piperazin-1-yl]-3,5,6,7-tetrahydropyrido[2,3-d]pyrimidin-4-one dihydrochloride]
[1]
  EC50: 27.8 nM
[2]
  IC50: 5.8 nM

Where a name gives a salt, the structure may show the parent alone.
